2 compounds from ChEMBL document CHEMBL5518236, “Discovery of Clinical Candidate AZD5462, a Selective Oral Allosteric RXFP1 Agonist for Treatment of Heart Failure” (J Med Chem, 2024) can be followed below.

Where only a bound is given, the exact number is not on record here.

The assay addresses T1, Relaxin receptor 1 (Homo sapiens) (UniProt Q9HBX9).
T1 sequence (whole entry): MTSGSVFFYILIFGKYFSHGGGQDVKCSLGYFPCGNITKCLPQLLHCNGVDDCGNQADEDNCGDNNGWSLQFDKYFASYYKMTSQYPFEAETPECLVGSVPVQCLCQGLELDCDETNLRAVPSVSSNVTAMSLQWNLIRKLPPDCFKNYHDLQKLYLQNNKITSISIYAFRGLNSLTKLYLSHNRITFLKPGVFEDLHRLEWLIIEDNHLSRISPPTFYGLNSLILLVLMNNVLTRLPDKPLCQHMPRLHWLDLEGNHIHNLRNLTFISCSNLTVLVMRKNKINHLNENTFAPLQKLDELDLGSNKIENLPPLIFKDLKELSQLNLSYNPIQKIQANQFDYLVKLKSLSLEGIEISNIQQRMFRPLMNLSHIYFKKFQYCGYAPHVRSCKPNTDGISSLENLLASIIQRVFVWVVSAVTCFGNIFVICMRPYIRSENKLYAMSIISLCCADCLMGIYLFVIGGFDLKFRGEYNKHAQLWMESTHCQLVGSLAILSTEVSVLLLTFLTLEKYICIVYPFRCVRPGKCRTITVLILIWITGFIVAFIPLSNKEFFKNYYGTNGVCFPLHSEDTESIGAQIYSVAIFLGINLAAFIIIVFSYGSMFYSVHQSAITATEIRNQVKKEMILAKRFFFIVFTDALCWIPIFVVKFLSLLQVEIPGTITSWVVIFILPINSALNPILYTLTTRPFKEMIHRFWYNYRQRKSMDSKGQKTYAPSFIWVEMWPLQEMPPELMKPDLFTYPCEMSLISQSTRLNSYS
The note with it: CHO, time 2.0 hrs.

Consider `CC(C)Oc1ccccc1C(=O)Nc1ccccc1C(=O)Nc1cccc(S(=O)(=O)C(F)(F)F)c1`, for which the fpEC50 is more than 7.7.

On to `COc1cc(F)c(O[C@H]2CC[C@@](C)(C(=O)O)CC2)cc1C(=O)N[C@@H]1[C@H]2CC[C@H](C2)[C@@H]1C(=O)Nc1ccc(F)c(S(F)(F)(F)(F)F)c1`, for which the fpEC50 was more than 10.5.
